The term IC50 denotes the concentration at which inhibition is half-maximal.

Molecules are shown by their SMILES. Like-named read-outs stand apart in the source and are kept apart here. A value given as a limit tells only on which side of the number the result lay.

Test [1] deals with T1, angiotensin-converting enzyme (ACE) (Oryctolagus cuniculus, UniProt P12822). Briefly: ACE-inhibitory activity, fluorescence assay with Abz-Gly-Phe(NO2)-Pro. Particulars: read-out: ACE Inhibitory Activity (IC50-µM), symbol; highest peptide concentration analyzed 1000 µM.
In test [2] the target is T1, angiotensin-converting enzyme (ACE). Particulars: read-out: ACE inhibitory IC50, cited from earlier work.

For `N=C(N)NCCC[C@H](N)C(=O)N[C@@H](Cc1ccc(O)cc1)C(=O)O`, the IC50 in test [1] is above 1000 µM; in test [2] (BIOPEP-UWM) it was 51 µM; in test [2] (database value) it was 54.4 µM.

Values taken from paper PMC7466261, “In Silico and In Vitro Analysis of Multifunctionality of Animal Food-Derived Peptides” (Foods, 2020).
